Literature values as cited in patent US7629342B2, “Azabicyclic heterocycles as cannabinoid receptor modulators” (Bristol-Myers Squibb Company, priority 2005, dated 2009).

Conditions: chronic administration for two weeks

Question: With `Cc1c(C(=O)NN2CCCCC2)nn(-c2ccc(Cl)cc2Cl)c1-c1ccc(I)cc1` [AM-251] as the compound, how does the adipose tissue mass read?
Answer: Its adipose tissue mass is “decreased adipose tissue mass”.
